Data reported in patent publication US7854753B2, “Photokinetic delivery of biologically active substances using pulsed incoherent light” (Photokinetix, Inc., priority 2002, dated 2010).

Experiment: Franz skin diffusion cell permeation (percutaneous absorption) under ambient, natural or pulsed incoherent LED light

Insulin [Compound 19]
% Permeation (percent increase or decrease vs dark baseline, equation 1) (350 + TiO2, 8 cps vs Dark-TiO2): 98.88% | % Permeation (percent increase or decrease vs dark baseline, equation 1) (350 + TiO2, 24 cps vs Dark-TiO2): 75.09% | % Permeation (percent increase or decrease vs dark baseline, equation 1) (350 + TiO2, 80 cps vs Dark-TiO2): 12.81% | Permeation (350 + TiO2, pulse rate 8 cps): 14.22 μg/cm^2/24 hrs | Permeation (350 + TiO2, pulse rate 24 cps): 73.73 μg/cm^2/24 hrs | Permeation (350 + TiO2, pulse rate 80 cps): 44.04 μg/cm^2/24 hrs | Permeation (350 nm LED, pulse rate 8 cps): 20.65 μg/cm^2/24 hrs | Permeation (350 nm LED, pulse rate 24 cps): 12.98 μg/cm^2/24 hrs | Permeation (350 nm LED, pulse rate 80 cps): 73.05 μg/cm^2/24 hrs | % Permeation (percent increase or decrease vs dark baseline, equation 1) (350 nm, 8 cps vs Dark): 114.43% | % Permeation (percent increase or decrease vs dark baseline, equation 1) (350 nm, 24 cps vs Dark): −64.70% | % Permeation (percent increase or decrease vs dark baseline, equation 1) (350 nm, 80 cps vs Dark): 58.01% | % Permeation (percent increase or decrease vs dark baseline, equation 1) (390 + TiO2, 8 cps vs Dark-TiO2): 282.10% | % Permeation (percent increase or decrease vs dark baseline, equation 1) (390 + TiO2, 24 cps vs Dark-TiO2): 85.21% | % Permeation (percent increase or decrease vs dark baseline, equation 1) (390 + TiO2, 80 cps vs Dark-TiO2): 92.44% | Permeation (390 + TiO2, pulse rate 8 cps): 27.32 μg/cm^2/24 hrs | Permeation (390 + TiO2, pulse rate 24 cps): 77.99 μg/cm^2/24 hrs | Permeation (390 + TiO2, pulse rate 80 cps): 75.13 μg/cm^2/24 hrs | Permeation (390 nm LED, pulse rate 8 cps): 22.87 μg/cm^2/24 hrs | Permeation (390 nm LED, pulse rate 24 cps): 84.67 μg/cm^2/24 hrs | Permeation (390 nm LED, pulse rate 80 cps): 36.54 μg/cm^2/24 hrs | % Permeation (percent increase or decrease vs dark baseline, equation 1) (390 nm, 8 cps vs Dark): 137.49% | % Permeation (percent increase or decrease vs dark baseline, equation 1) (390 nm, 24 cps vs Dark): 130.27% | % Permeation (percent increase or decrease vs dark baseline, equation 1) (390 nm, 80 cps vs Dark): −20.96% | % Permeation (percent increase or decrease vs dark baseline, equation 1) (405 + TiO2, 8 cps vs Dark-TiO2): 118.04% | % Permeation (percent increase or decrease vs dark baseline, equation 1) (405 + TiO2, 24 cps vs Dark-TiO2): 89.79% | % Permeation (percent increase or decrease vs dark baseline, equation 1) (405 + TiO2, 80 cps vs Dark-TiO2): 25.72% | Permeation (405 + TiO2, pulse rate 8 cps): 15.59 μg/cm^2/24 hrs | Permeation (405 + TiO2, pulse rate 24 cps): 79.92 μg/cm^2/24 hrs | Permeation (405 + TiO2, pulse rate 80 cps): 49.08 μg/cm^2/24 hrs | Permeation (405 nm LED, pulse rate 8 cps): 29.27 μg/cm^2/24 hrs | Permeation (405 nm LED, pulse rate 24 cps): 79.31 μg/cm^2/24 hrs | Permeation (405 nm LED, pulse rate 80 cps): 19.79 μg/cm^2/24 hrs | % Permeation (percent increase or decrease vs dark baseline, equation 1) (405 nm, 8 cps vs Dark): 203.95% | % Permeation (percent increase or decrease vs dark baseline, equation 1) (405 nm, 24 cps vs Dark): 115.69% | % Permeation (percent increase or decrease vs dark baseline, equation 1) (405 nm, 80 cps vs Dark): −57.19% | % Permeation (percent increase or decrease vs dark baseline, equation 1) (450 + TiO2, 8 cps vs Dark-TiO2): 221.12% | % Permeation (percent increase or decrease vs dark baseline, equation 1) (450 + TiO2, 24 cps vs Dark-TiO2): 62.76% | % Permeation (percent increase or decrease vs dark baseline, equation 1) (450 + TiO2, 80 cps vs Dark-TiO2): −31.33% | Permeation (450 + TiO2, pulse rate 8 cps): 22.96 μg/cm^2/24 hrs | Permeation (450 + TiO2, pulse rate 24 cps): 68.54 μg/cm^2/24 hrs | Permeation (450 + TiO2, pulse rate 80 cps): 26.81 μg/cm^2/24 hrs | Permeation (450 nm LED, pulse rate 8 cps): 21.55 μg/cm^2/24 hrs | Permeation (450 nm LED, pulse rate 24 cps): 73.22 μg/cm^2/24 hrs | Permeation (450 nm LED, pulse rate 80 cps): 26.12 μg/cm^2/24 hrs | % Permeation (percent increase or decrease vs dark baseline, equation 1) (450 nm, 8 cps vs Dark): 123.78% | % Permeation (percent increase or decrease vs dark baseline, equation 1) (450 nm, 24 cps vs Dark): 99.13% | % Permeation (percent increase or decrease vs dark baseline, equation 1) (450 nm, 80 cps vs Dark): −43.50% | Permeation Dark (Dark control, ambient light absent): 1.12 μg/0.64 cm^2/25 hrs | Permeation (Dark control, 8 cps series): 9.63 μg/cm^2/24 hrs | Permeation (Dark control, 24 cps series): 36.77 μg/cm^2/24 hrs | Permeation (Dark control, 80 cps series): 46.23 μg/cm^2/24 hrs | Permeation (Dark-TiO2 control (2% TiO2), 8 cps series): 7.15 μg/cm^2/24 hrs | Permeation (Dark-TiO2 control (2% TiO2), 24 cps series): 42.11 μg/cm^2/24 hrs | Permeation (Dark-TiO2 control (2% TiO2), 80 cps series): 39.04 μg/cm^2/24 hrs | Permeation (Day (natural daylight, not pulsed), control of the 8 cps series): 15.56 μg/cm^2/24 hrs | Permeation (Day (natural daylight, not pulsed), control of the 24 cps series): 52.93 μg/cm^2/24 hrs | Permeation (Day (natural daylight, not pulsed), control of the 80 cps series): 56.11 μg/cm^2/24 hrs | % Permeation (percent increase or decrease vs dark baseline, equation 1) (Day vs Dark, 8 cps series): 61.58% | % Permeation (percent increase or decrease vs dark baseline, equation 1) (Day vs Dark, 24 cps series): 43.95% | % Permeation (percent increase or decrease vs dark baseline, equation 1) (Day vs Dark, 80 cps series): 21.37% | Permeation (Day-TiO2 (natural daylight, 2% TiO2, not pulsed), control of the 8 cps series): 8.61 μg/cm^2/24 hrs | Permeation (Day-TiO2 (natural daylight, 2% TiO2, not pulsed), control of the 24 cps series): 55.83 μg/cm^2/24 hrs | Permeation (Day-TiO2 (natural daylight, 2% TiO2, not pulsed), control of the 80 cps series): 49.95 μg/cm^2/24 hrs | % Permeation (percent increase or decrease vs dark baseline, equation 1) (Day-TiO2 vs Dark-TiO2, 8 cps series): 20.42% | % Permeation (percent increase or decrease vs dark baseline, equation 1) (Day-TiO2 vs Dark-TiO2, 24 cps series): 32.58% | % Permeation (percent increase or decrease vs dark baseline, equation 1) (Day-TiO2 vs Dark-TiO2, 80 cps series): 27.95% | Permeation Ctrl (ambient cool fluorescent light only, 260-750 nm, 120 cps): 3.55 μg/0.64 cm^2/25 hrs | Permeation Ctrl-TiO2 (ambient fluorescent light, sample with 2% (w/w) rutile TiO2): 0.00 μg/0.64 cm^2/25 hrs
